The numbers were not newly measured in patent US5733881A, “Opioid peptide antagonists” (Astra AB, priority 1994, dated 1998), which cites them from elsewhere.

The chains behind the UniProt entries cited, without tags or fusion partners.
UniProt P35372, whole entry, species assumed: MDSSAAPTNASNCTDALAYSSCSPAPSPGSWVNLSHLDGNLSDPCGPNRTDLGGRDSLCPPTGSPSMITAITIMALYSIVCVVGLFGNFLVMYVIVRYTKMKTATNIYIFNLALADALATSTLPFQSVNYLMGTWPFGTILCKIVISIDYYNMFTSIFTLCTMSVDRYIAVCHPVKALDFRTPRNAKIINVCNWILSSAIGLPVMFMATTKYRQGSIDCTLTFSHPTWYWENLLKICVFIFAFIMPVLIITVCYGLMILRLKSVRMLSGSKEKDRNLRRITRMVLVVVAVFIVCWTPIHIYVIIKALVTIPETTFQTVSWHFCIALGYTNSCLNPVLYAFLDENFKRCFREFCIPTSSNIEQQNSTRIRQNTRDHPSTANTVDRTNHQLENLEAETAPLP

The target of the data set is μ opioid receptor (Homo sapiens, UniProt P35372). To be noted: read-out: μ opioid receptor affinity Ki^μ; receptor binding assay.

pKi: −log10 of the molar value.

Usually pKi stands for the negative decadic logarithm of the Ki, by convention in mol/L. On to `Oc1ccc2c3c1O[C@H]1c4[nH]c5ccccc5c4C[C@@]4(O)[C@@H](C2)N(CC2CC2)CC[C@]314` [naltrindole], for which the pKi was 7.92.
